This test addresses Cyclin-dependent kinase 5/CDK5 activator 1 (Homo sapiens, UniProt Q00535).

Amino acid sequences for entries named in this document (tags omitted).
UniProt Q00535, whole entry: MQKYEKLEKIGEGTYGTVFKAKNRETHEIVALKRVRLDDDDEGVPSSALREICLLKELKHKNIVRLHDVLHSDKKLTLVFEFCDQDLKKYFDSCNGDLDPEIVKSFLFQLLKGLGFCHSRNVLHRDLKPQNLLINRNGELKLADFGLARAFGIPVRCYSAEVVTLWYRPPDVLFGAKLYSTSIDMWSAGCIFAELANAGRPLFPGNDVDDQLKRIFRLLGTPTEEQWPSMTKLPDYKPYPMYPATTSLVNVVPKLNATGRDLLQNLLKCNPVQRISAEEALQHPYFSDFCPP

The term IC50 denotes the concentration needed to halve the response being measured. A higher IC50 goes with a need for much substance. Molecule `O=C1Nc2ccccc2/C1=C1/Nc2ccccc2C1=O` [INDIRUBIN] came in with a 50% inhibitory concentration (IC50) of 5.5 µM.

Source of the values: ChEMBL document CHEMBL4014343 (J Med Chem, 2017).
